The list shows a part of the results, in another mix than the full data. Activity calls are given as the source filed them. How the calls were made is not given here.

A short description of this experiment: anaerobic choline-dependent bacterial growth inhibition – minimal medium, absorbance (AID 1963822). The settings on record: Gram-negative bacterium anaerobic choline minimal medium, active compounds read low.
Consider `CN(CCCl)CCCl`, for which the z-score is inactive: 0.35.

The values are drawn from PubChem BioAssay AID1963822 (ICCB-Longwood Screening Facility, Harvard Medical School, 2024).
